Biological target: MG64-1 Cas12k expressed with an N-terminal Twin Strep tag and an HRV3C protease site and a C-terminal 2xNLS tag
Experiment: mass spectrometry of tryptic peptides from SEC-eluted Cas12k Strep pulldown complex; emPAI is a relative measure of abundance

emPAI: 0.46
Substance: small prokaryotic ribosomal protein subunit S15 (from UniProt P0ADZ4 2-89)

Reference: patent publication US20260265717A1
